# In patent US7250425B2, “8-aza-bicyclo[3.2.1]octane derivatives and their use as monoamine neurotransmitter re-uptake inhibitors” (priority 2003, dated 2007):
# By UniProt entry, the sequences of proteins in these tests, tags left out.
# UniProt Q63380, entry or part of it: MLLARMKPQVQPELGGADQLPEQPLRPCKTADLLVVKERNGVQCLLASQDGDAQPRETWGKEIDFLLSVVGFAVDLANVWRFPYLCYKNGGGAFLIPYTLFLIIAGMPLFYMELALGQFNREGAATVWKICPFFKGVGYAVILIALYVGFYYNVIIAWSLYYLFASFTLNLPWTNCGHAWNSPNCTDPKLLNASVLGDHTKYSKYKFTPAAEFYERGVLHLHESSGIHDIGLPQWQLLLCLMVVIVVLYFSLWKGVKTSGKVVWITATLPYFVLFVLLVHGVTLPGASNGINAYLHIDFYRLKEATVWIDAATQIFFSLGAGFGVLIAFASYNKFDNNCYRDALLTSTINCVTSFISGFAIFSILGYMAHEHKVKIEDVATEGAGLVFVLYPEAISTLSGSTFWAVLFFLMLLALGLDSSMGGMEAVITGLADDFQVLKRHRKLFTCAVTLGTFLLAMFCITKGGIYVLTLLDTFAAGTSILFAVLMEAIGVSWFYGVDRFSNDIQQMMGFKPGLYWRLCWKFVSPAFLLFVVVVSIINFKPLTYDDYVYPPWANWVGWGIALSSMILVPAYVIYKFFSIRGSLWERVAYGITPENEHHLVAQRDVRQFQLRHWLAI
# UniProt P23977, whole entry: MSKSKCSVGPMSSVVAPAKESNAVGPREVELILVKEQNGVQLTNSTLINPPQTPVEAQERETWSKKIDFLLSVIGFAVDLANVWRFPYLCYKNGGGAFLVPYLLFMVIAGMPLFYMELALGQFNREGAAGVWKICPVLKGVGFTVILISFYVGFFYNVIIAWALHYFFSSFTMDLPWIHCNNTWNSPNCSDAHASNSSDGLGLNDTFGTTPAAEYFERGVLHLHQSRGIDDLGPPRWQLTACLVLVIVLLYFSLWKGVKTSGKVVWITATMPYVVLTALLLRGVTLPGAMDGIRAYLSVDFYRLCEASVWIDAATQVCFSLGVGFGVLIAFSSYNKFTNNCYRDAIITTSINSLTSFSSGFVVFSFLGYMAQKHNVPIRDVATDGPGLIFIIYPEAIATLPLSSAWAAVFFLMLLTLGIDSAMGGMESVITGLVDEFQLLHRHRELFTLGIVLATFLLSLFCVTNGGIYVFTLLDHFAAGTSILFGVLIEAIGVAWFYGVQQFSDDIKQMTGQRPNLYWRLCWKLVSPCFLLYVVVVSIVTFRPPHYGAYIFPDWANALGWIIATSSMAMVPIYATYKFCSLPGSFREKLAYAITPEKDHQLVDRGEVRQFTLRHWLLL
# UniProt P31652, whole entry: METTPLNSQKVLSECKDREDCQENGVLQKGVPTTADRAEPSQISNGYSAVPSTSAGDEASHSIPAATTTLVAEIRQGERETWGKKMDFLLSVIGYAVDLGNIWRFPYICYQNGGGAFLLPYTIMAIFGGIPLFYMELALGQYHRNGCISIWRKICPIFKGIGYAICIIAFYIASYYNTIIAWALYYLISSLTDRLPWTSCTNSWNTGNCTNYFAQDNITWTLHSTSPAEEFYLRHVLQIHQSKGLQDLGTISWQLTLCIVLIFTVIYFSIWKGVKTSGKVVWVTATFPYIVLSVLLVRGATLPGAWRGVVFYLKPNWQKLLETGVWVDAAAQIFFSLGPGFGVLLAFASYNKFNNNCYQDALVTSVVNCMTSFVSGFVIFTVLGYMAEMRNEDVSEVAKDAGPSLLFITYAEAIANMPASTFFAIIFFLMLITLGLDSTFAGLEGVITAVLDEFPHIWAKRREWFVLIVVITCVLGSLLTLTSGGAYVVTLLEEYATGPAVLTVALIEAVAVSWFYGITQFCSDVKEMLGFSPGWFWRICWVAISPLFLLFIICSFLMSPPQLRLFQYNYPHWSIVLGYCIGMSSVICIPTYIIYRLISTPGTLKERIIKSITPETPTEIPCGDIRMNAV
# Tests used:
# Format in all cases: biochemical
# [1] = target: reuptake of noradrenaline (NA) in synaptosomes (Rattus norvegicus, UniProt Q63380); assay: In vitro inhibition of noradrenaline reuptake in synaptosomes; details: 3H-NA, read-out: NA-uptake IC50
# Protocol: (§1) A number of compounds were tested for their ability to Inhibit the reuptake of the monoamine neurotransmitters dopamine (DA) noradrenaline(NA) and serotonin (5-HT) in synaptosomes as described in WO 97/16451.
# (§2) The test values are given as IC50 (the concentration (μM) of the test substance which inhibits the specific binding of ^3H-DA, ^3H-NA, or 3H-5-HT by 50%).
# [2] = target: T1, reuptake of dopamine (DA) in synaptosomes (Rattus norvegicus, UniProt P23977); assay: In vitro inhibition of dopamine reuptake in synaptosomes; details: 3H-DA, read-out: DA-uptake IC50
# T1 construct: in synaptosomes as described in WO 97/16451; from tissue
# Protocol: as §1, §2
# [3] = target: T2, reuptake of serotonin (5-HT) in synaptosomes (Rattus norvegicus, UniProt P31652); assay: In vitro inhibition of serotonin reuptake in synaptosomes; details: 3H-5-HT, read-out: 5-HT-uptake IC50
# T2 construct: in synaptosomes as described in WO 97/16451; from tissue
# Protocol: as §1, §2
substance,measurement,setting,value
"(2R,3S)-2-(1-Naphthaleneoxymethyl)-8-methyl-3-(3-chlorophenyl)-8-aza-bicyclo[3.2.1]octane fumaric acid salt [2nd compound of method D]",IC50,[1],150 nM
same,IC50,[2],65 nM
same,IC50,[3],6.3 nM
